Biological target: Kappa-type opioid receptor (Homo sapiens, UniProt P41145)

Protein sequences, listed by entry. Tags and fused reporters are not part of them. Lines headed by an entry give the natural chain unless they say otherwise; changes in a name come on top.
UniProt P41145: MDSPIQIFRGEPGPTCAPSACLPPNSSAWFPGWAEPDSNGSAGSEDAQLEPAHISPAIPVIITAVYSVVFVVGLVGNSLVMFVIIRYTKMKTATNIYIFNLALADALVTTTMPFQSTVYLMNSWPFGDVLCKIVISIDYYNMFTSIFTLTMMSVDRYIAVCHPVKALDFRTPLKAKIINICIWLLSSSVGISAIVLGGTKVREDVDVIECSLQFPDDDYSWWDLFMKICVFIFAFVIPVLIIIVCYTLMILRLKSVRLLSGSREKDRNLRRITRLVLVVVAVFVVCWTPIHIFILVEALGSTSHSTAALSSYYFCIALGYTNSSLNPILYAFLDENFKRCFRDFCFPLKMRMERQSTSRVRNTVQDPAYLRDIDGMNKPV

CN(C(=O)Cc1ccccc1)[C@H]1C[C@@]2(CCCO2)CC[C@@H]1N1CCCC1
EC50: 12 nM

From BindingDB's records for 25062506
